For this assay, the target named is rat brain PKC isoform mixture. It counts as binding.

Regarding `CC(=O)O[C@@]12C[C@@H](C)[C@@]3(O)[C@@H](C=C(CO)C[C@]4(O)C(=O)C(C)=C[C@@H]34)[C@@H]1C2(C)C` [Prostratin, C12-deoxy-C13-acetyl phorbol, reference compound], the Ki (in general, the equilibrium dissociation constant of an inhibitor or competing ligand from its target) is 50 nM.

These data come from patent publication US8816122B2 (The Board of Trustees of the Leland Stanford Junior …, priority 2009, dated 2014).
